The values below are quoted from earlier work in PMC12641067 (Clinical Pharmacology and Therapeutics, 2025).

The IC50 is the midpoint of a concentration-inhibition curve.

For the data set, the system named is OAT1. The arrangement: method as in ref 9 (a number printed in a supplementary file, which may have a reference list of its own: not looked up in the article's list). To be noted: substrate PDA; HEK293; read-out: In vitro OAT1 IC50; cited from earlier work.

For the molecule `CCCN(CCC)S(=O)(=O)c1ccc(C(=O)O)cc1` [PROB, probenecid], the IC50 is 22 µM.
